Results from PubChem BioAssay AID602143 (Vanderbilt Specialized Chemistry Center, 2011).
The list shows a part of the results, in another mix than the full data. Activity calls are given as the source filed them. Rule as the data show it: active = remaining activity below about 50%; inactive = the rest.

The chains behind the UniProt entries cited, without tags or fusion partners. Where a name states a change or a piece, a line headed by the entry shows the natural chain unless it says otherwise.
UniProt O14939: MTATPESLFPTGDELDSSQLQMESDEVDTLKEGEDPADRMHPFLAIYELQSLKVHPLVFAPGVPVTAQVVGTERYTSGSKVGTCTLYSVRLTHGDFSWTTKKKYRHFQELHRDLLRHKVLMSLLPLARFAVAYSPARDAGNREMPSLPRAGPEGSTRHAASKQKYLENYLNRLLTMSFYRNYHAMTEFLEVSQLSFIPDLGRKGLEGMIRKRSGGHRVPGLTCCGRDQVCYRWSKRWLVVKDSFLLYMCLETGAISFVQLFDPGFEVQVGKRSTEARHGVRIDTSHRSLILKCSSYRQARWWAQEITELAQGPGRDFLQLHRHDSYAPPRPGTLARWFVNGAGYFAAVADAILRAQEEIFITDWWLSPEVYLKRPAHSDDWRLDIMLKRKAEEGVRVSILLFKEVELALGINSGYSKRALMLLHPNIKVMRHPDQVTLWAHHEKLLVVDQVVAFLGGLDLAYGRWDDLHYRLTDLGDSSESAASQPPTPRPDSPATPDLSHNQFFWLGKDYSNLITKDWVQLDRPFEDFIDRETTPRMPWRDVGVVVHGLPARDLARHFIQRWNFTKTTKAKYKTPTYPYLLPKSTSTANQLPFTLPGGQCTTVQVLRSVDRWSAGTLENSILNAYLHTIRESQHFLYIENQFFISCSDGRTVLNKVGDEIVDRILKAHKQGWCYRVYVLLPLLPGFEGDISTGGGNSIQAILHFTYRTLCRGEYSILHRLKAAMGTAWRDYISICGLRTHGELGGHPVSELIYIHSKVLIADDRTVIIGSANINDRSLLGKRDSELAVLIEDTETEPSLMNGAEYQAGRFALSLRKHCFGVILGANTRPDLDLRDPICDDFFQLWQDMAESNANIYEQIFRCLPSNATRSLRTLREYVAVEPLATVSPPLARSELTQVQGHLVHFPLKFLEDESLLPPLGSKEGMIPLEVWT

Molecular target: Phospholipase D2 (Homo sapiens) (UniProt O14939)
Experiment: PLD2 inhibitors in cells, cell-based, HEK293, single concentration (AID 602143);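 also: tested at 200 nM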
Conditions: HEK293 cellular PLD2 activity, percent of control; stronger effect = lower value

C[C@@H](CN1CCC2(CC1)C(=O)NCN2c1ccccc1)NC(=O)c1ccc2ccccc2c1
remaining activity: active: 27.4%

O=C(NCCN1CCC2(CC1)C(=O)NCN2c1cccc(F)c1)c1ccc2ccccc2c1
remaining activity: active: 7.79%
